From PubChem
uPA generation: cell surface uPA generation inhibition; cell surface uPA generation assay, qHTS; Potency, µM (top dose mostly 38.3 µM), for inactives: top-dose activity change, negative = inhibition, most hits filed as inhibitors; 0.31% of 330,000 active; active = well fitted inhibition curve with a large enough effect; inconclusive = small, poorly fitted or top-dose-only effect; inactive = no such curve, though single readings can be large or run the other way; tested in mouse RAW 264.7 cells; also: potency is read from the fitted curve at half-maximal effect; % is scaled to controls: 0 for no effect and ±100 for the full control effect; nearly all actives have a fitted effect of over 55% in size
TDP1 cell noCPT: qHTS for Inhibitors of human tyrosyl-DNA phosphodiesterase 1 (TDP1): qHTS in cells in absence of CPT; Potency, µM (highest dose often 46.2 µM), for inactives: at the highest dose activity change, negative = growth inhibition, most hits filed as inhibitors; DT40 Tdp1-/- hTDP1 cells, no CPT, ATP luminescence, 48 h; 15% of 420,000 active; also: potency is read from the fitted curve at half-maximal effect; % is scaled to controls: 0 for no effect and ±100 for the full control effect; nearly all actives have a fitted effect of over 55% in size
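Stably hTDP1-transfected Tdp1-null chicken DT40 cells were treated with library compounds minus camptothecin and grown for at least 48 hr at 37 °C, after which cellular ATP was quantified by luminescence.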
DT40 TDP1 CPT: DT40-hTDP1 cell growth loss with CPT; chicken DT40 Tdp1-/-;hTDP1 cells + 20 nM CPT, ATP luminescence, 48 h; Potency, µM (doses to about 46.2 µM), for inactives: at the top dose activity change, negative = growth inhibition, actives largely listed as inhibitors; 12% of 420,000 active; AID 686979; also: potency is read from the fitted curve at half-maximal effect; % is scaled to controls: 0 for no effect and ±100 for the full control effect; nearly all actives have a fitted effect of over 55% in size
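Chicken DT40 Tdp1-/- cells complemented with human TDP1, 400 cells/well, exposed to compounds plus 20 nM camptothecin for at least 48 h at 37 C; viability read as ATP content by CellTiter-Glo luminescence.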
miR-21 reporter: miR-21 reporter, rising signal | HeLa miR-21 FLuc reporter, luciferase, 48 h | Potency, µM (doses to about 38.3 µM), inactives show at the top dose reporter change, positive = more light | 340,000 tested, under 10 active | AID 2288; active = well fitted rising curve with a large enough effect; inconclusive = small, poorly fitted or top-dose-only effect; inactive = no such curve, though single readings can be large or run the other way;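 note: % of control where 0% means no effect; miR-21 action dims this reporter so a rising signal means less miR-21 action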
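Compounds were titrated across several concentrations (up to approximately 40 uM) and incubated 48 hours with HeLa miR-21-FLuc reporter cells (miR-21 target sequence downstream of FLuc, endogenous miR-21). Readout was firefly luciferase luminescence after lytic detection reagent.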
TDP1 inh: blocks human tyrosyl-DNA phosphodiesterase 1 | Q9NUW8 | 0.28% of 350,000 active | Potency, µM (highest dose often 130 µM), without a hit: at the highest dose activity change, negative = inhibition, actives largely listed as inhibitors | recombinant TDP1, AlphaScreen DNA substrate cleavage; also: potency is read from the fitted curve at half-maximal effect; % is scaled to controls: 0 for no effect and ±100 for the full control effect; nearly all actives have a fitted effect of over 40% in size
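AlphaScreen read-out: signal falls as enzyme removes the 3' tyrosine-FITC from a 5'-biotinylated DNA oligo (15 nM, 5 min, RT). Enzyme was E. coli-made recombinant Tdp1 at 1 nM, exposed to compound for 15 min beforehand; beads 10 ug/ml, 10 min.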
Numbers without * were called inactive; ? = inconclusive; / = not tested or not shown; [ ] = remark or other dose. Rows were chosen to be rich in hits. Some 16% of all compounds tested hit in one or more screens of this group. Unless noted, calls follow the shape of the dose curve; as a rule, active = well fitted curve in the direction sought with a large enough effect; inconclusive = small, poorly fitted or top-dose-only effect, or another doubt; inactive = no such curve, though single readings can be large; an effect the other way counts as inactive or inconclusive.

structure,DT40 TDP1 CPT,uPA generation,TDP1 inh,miR-21 reporter,TDP1 cell noCPT
Cc1c(Cl)ccc(S(=O)(=O)NCCN2CCOCC2)c1Cl,-12.6%,6.7%,/,-3.1%,-28.0%
Fc1ccc(-c2n[nH]c(=S)n2Cc2ccccc2)cc1,13.3%,17.7%,/,-3.1%,-3.4%
CC(C)n1c(-c2ccccc2F)n[nH]c1=S,-1.4%,/,/,0.4%,-12.1%
Cc1ccc(-c2n[nH]c(=S)n2C)cc1,25.9µM*,-0.7%,3.1%,-13.9%,16.4µM*
CC(C)(C)c1ccc(-c2n[nH]c(=S)n2Cc2ccccc2)cc1,?,1.7%,/,19.9%,11.6µM*
CC(C)n1c(-c2ccc(C(C)(C)C)cc2)n[nH]c1=S,11.2µM*,/,4.0%,3.4%,?
Cc1cc(C(=O)Nc2cccc3ccccc23)co1,-34.0%,-11.9%,7.1%,-17.5%,1.7%
Cc1ccc(C)c(N(CC(=O)NN=C2CCN(C)CC2)S(=O)(=O)c2ccccc2)c1,8.4%,-15.5%,5.8%,-9.6%,-1.2%
Cc1nnc(NC(=O)Nc2cccc(Cl)c2)s1,?,2.0%,5.3%,-6.3%,13µM*
Cc1cc(NC(=O)Nc2cccc(Cl)c2)no1,-21.3%,/,/,/,?
Cc1cc(C)nc(/N=C(/NC(=O)Nc2cccc(Cl)c2)Nc2ccccc2)n1,?,7.1%,1.0%,-3.3%,18.4µM*
O=C(Nc1cccc(Cl)c1)Nc1nc(-c2ccccc2)cs1,?,0.4%,4.9%,-7.0%,?
Cc1ccc(OCCSCc2nnc(NC(=O)Nc3cccc(Cl)c3)s2)cc1,4.61µM*,-8.6%,2.7%,27.0%,4.61µM*
Cc1csc(NC(=O)Nc2cccc(Cl)c2)n1,?,-1.2%,5.0%,-26.8%,23.1µM*
Cc1sc2ncn(CC(=O)Nc3ccc(F)cc3F)c(=O)c2c1S(=O)(=O)N1CCC(C)CC1,-25.7%,/,2.9%,4.7%,-26.6%
Cc1cccc(-c2c3c(=O)n(C)c(=O)n(C)c3c3cnc4ccccc4n23)c1,-12.4%,/,1.1%,-2.6%,?
COc1ccc(-c2nc3ccccc3n3c(-c4cccc(C)c4)c4c(=O)n(C)c(=O)n(C)c4c23)cc1,18.4µM*,/,2.1%,-9.0%,-73.3%
Cc1cccc(-c2nc3ccccc3n3c(-c4ccccc4)c4c(=O)n(C)c(=O)n(C)c4c23)c1,-6.4%,/,-3.2%,0.2%,2.4%
COc1ccc(-c2c3c(=O)n(C)c(=O)n(C)c3c3c(-c4ccc(C)cc4)nc4ccccc4n23)cc1,-11.7%,/,4.2%,-0.6%,-22.9%
CCc1nc2ccccc2n2c(-c3ccccc3)c3c(=O)n(C)c(=O)n(C)c3c12,14.6µM*,/,-2.1%,-3.6%,20.6µM*

An excerpt of these results, with values under each structure.
Values in the order – DT40 TDP1 CPT, uPA generation, TDP1 inh, miR-21 reporter, TDP1 cell noCPT
Fc1ccc(-c2n[nH]c(=S)n2Cc2ccccc2)cc1
    13.3%, 17.7%, /, -3.1%, -3.4%
CC(C)n1c(-c2ccccc2F)n[nH]c1=S
    -1.4%, /, /, 0.4%, -12.1%
Cc1ccc(-c2n[nH]c(=S)n2C)cc1
    25.9µM*, -0.7%, 3.1%, -13.9%, 16.4µM*
CC(C)(C)c1ccc(-c2n[nH]c(=S)n2Cc2ccccc2)cc1
    ?, 1.7%, /, 19.9%, 11.6µM*
CC(C)n1c(-c2ccc(C(C)(C)C)cc2)n[nH]c1=S
    11.2µM*, /, 4.0%, 3.4%, ?
Cc1cc(C(=O)Nc2cccc3ccccc23)co1
    -34.0%, -11.9%, 7.1%, -17.5%, 1.7%

Other compounds follow:
structure,DT40 TDP1 CPT,uPA generation,TDP1 inh,miR-21 reporter,TDP1 cell noCPT
Cn1c(=O)c2c(-c3ccccc3)n3c4ccccc4nc(-c4ccccc4)c3c2n(C)c1=O,?,/,1.1%,-15.1%,14.6µM*
CCCCNCc1cc(Cl)c(OCCC)c(OCC)c1,?,-7.0%,0.0%,-0.2%,?
O=C(Nc1ccc2c(c1)C(=O)c1ccccc1-2)c1ccccc1,7.5%,-1.0%,/,/,?
Cc1ccc(NCCC(=O)c2ccccc2)cc1Cl,10.3µM*,4.9%,5.8%,-8.8%,14.6µM*
Cc1ccc(NC2=C(NC(=O)c3ccccc3)C(=O)c3ccccc3C2=O)cc1Cl,8.2µM*,?,9.5%,12.0%,20.6µM*
CN(Cc1nc2ccccc2c(=O)[nH]1)C(=O)c1cc(C2CC2)nn1-c1ccccc1,13µM*,19.5%,1.9%,/,?
Cc1ccc(C)c(NC(=O)CN(C)C(=O)c2cc(C3CC3)nn2-c2ccccc2)c1,16.4µM*,-29.6%,0.0%,/,?
CCOc1ccc(NC(=O)CN(C)C(=O)c2cc(C3CC3)nn2-c2ccccc2)cc1OCC,?,-1.4%,0.7%,/,?
CN(C)c1ccc(N=Nc2ccccc2C(=O)OCC(=O)N(C)C2CCCCC2)cc1,7.5%,3.5%,10.3%,-27.8%,-14.4%
CN(C)c1ccc(N=Nc2ccccc2C(=O)OCC(=O)NCC2CCCCC2)cc1,?,-9.9%,2.8%,-28.8%,20.6µM*
CN(C)c1ccc(C(=O)OCC(=O)NC2CCCCCC2)cc1,-28.5%,0.0%,0.0%,-2.4%,?
CC1CCCCC1NC(=O)COC(=O)c1ccc(N(C)C)cc1 (configuration not stated),?,0.7%,10.1%,-2.3%,12.6µM*
CN(C)c1ccc(N=Nc2ccccc2C(=O)OCC(=O)NC2CCCC2)cc1,25.9µM*,-5.0%,11.0%,-29.8%,?
O=C(C1CCC1)N1CCCc2cc(S(=O)(=O)N3CCN(c4cccc(Cl)c4)CC3)ccc21,?,/,1.1%,4.9%,?
CO[C@@H]1/C=C\CC(=O)N[C@@H](C)C(=O)OC[C@@H](OC)[C@H](C)CCCC(=O)OC[C@H]1C,/,/,2.6%[21 µM],/,/
COc1cc(F)ccc1CN1CCC(C(=O)Nc2ccc(Oc3ccccc3)nc2)CC1,?,-6.6%,3.5%,21.1%,16.4µM*
COc1ccc(CN2CCC(C(=O)Nc3ccc(Oc4ccccc4)nc3)CC2)cc1F,20.6µM*,-5.4%,4.6%[56.1 µM],20.6%,18.4µM*
Cc1c(CN2CCC(C(=O)Nc3ccc(Oc4ccccc4)nc3)CC2)cnn1C,11.1%,-0.6%,2.1%,0.6%,14.2%
O=C(Nc1ccc(Oc2ccccc2)nc1)C1CCN(Cc2ccccc2)CC1,?,4.1%,3.1%,10.7%,-28.3%
CC(=O)c1ccc(NC(=O)c2cn3c4c(ccc(Cl)c4c2=O)OC(C)C3)cc1 (configuration not stated),9.4%,/,1.2%,-2.7%,-12.2%
CS(=O)(=O)N1CCn2c1nc1ccccc12,14.4%,-2.7%,2.5%,-3.6%,-21.9%
CCN1N=C(c2ccccc2)Cn2c1nc1ccccc12,?,-6.6%,3.0%,7.2%,16.4µM*
COc1ccc(-n2c(=O)c(-c3cccs3)nc3cnc(Nc4cccc(OC)c4)nc32)cc1,-14.8%,/,/,/,23.1µM*
CCNc1ncc2nc(-c3ccc(F)cc3)c(=O)n(-c3ccccc3)c2n1,4.1%,/,/,/,-0.6%
COc1cccc(Nc2ncc3nc(-c4cccs4)c(=O)n(CCC#N)c3n2)c1,1.9%,/,/,/,-0.9%
COc1ccc(-c2nc3cnc(N4CCNCC4)nc3n(-c3ccccc3)c2=O)cc1,20.6µM*,/,/,/,14.6µM*
CCNc1ncc2nc(-c3ccc(OC)cc3)c(=O)n(-c3ccc(OC)cc3)c2n1,?,/,/,/,0.0326µM*
COc1ccc(-n2c(=O)c(-c3ccc(Cl)cc3)nc3cnc(N4CCNCC4)nc32)cc1,5.17µM*,/,/,/,11.6µM*
COc1ccc(-n2c(=O)c(-c3ccccc3)nc3cnc(N4CCNCC4)nc32)cc1,-8.7%,/,/,/,4.7%
Cc1cc2ccccc2n2c(SCC(=O)NCC3CCCO3)nnc12 (configuration not stated),0.3%,?,0.0%,-6.3%,0.3%
CN(C)C(=N)N=C(N)N,?,12.0%,7.9%[56.1 µM],0.8%,1.1%
